The test system of data set [1] is GXA 3039 gastric cancer PDX model. In words: GXA 3039 gastric cancer PDX model, tumor growth inhibition. In kind it is in vivo, Mice. The conditions noted are these: study day 29, tucatinib 50 mg/kg orally twice per day, trastuzumab 20 mg/kg IP once every three days. On the procedure: (§1) The term “tumor growth inhibition (TGI) index” refers to a value used to represent the degree to which an agent (e.g., tucatinib, an anti-HER2 antibody, or a combination thereof) inhibits the growth of a tumor when compared to an untreated control. The TGI index is calculated for a particular time point (e.g., a specific number of days into an experiment or clinical trial) according to the following formula:
(§2) [formula] where “Tx Day 0” denotes the first day that treatment is administered (i.e., the first day that an experimental therapy or a control therapy (e.g., vehicle only) is administered) and “Tx Day X” denotes X number of days after Day 0. Typically, mean volumes for treated and control groups are used.
(§3) Tucatinib was administered orally at a dose of 50 mg/kg twice per day for 28 days (study days 0-27). […] A vehicle-only group was included as a negative control.

The test system of data set [2] is GXA 3038 gastric cancer PDX model. As to the kind of experiment: GXA 3038 gastric cancer PDX model, tumor growth inhibition. Format: in vivo, Mice. The conditions noted are these: study day 28, tucatinib 50 mg/kg orally twice per day, trastuzumab 20 mg/kg IP once every three days. On the procedure:
as §1, §2, §3

Data set [3] deals with CTG-0138 esophageal cancer PDX model. As to the kind of experiment: CTG-0138 esophageal cancer PDX model, tumor growth inhibition. In kind it is in vivo, Mice. Conditions: study day 30, tucatinib 50 mg/kg orally twice per day, trastuzumab 20 mg/kg IP once every three days. On the procedure: as §1, §2, §3
The subject of data set [4] is CTG-0927 HER2 positive cholangiocarcinoma PDX model. As to the kind of experiment: CTG-0927 cholangiocarcinoma PDX model, tumor growth inhibition. Format: in vivo, Mice. Conditions: study day 28, tucatinib 50 mg/kg orally twice per day, trastuzumab 20 mg/kg IP once every three days. On the procedure:
as §1, §2, §3

Data set [5] concerns NCI-H2170 NSCLC xenograft model. In words: NCI-H2170 NSCLC xenograft model, tumor growth inhibition. In kind it is in vivo, Mice. Conditions: study day 39, tucatinib 50 mg/kg orally twice per day, trastuzumab 20 mg/kg IP twice per week, from study day 18. On the procedure:
as §1, §2
(§4) For the Calu-3 study, tucatinib was administered orally at a dose of 50 mg/kg twice per day for 21 days, beginning on study day 7. […] Seven doses of trastuzumab were administered. A vehicle-only group was included as a negative control. Three individual animals received dose holidays (one in the negative control group and two in the combination therapy group).
For the NCI-H2170 study, tucatinib was administered orally at a dose of 50 mg/kg twice per day for 21 days, beginning on study day 18. […] A vehicle-only group was included as a negative control.

Data set [6] relates to CTG-0137 esophageal cancer PDX model. As to the kind of experiment: CTG-0137 esophageal cancer PDX model, tumor growth inhibition. Conditions: study day 15, tucatinib 50 mg/kg orally twice per day, trastuzumab 20 mg/kg IP once every three days. Format: in vivo, Mice. Here is the method:
as §1, §2, §3

For data set [7], the system named is Calu-3 NSCLC xenograft model. In words: Calu-3 NSCLC xenograft model, tumor growth inhibition. In kind it is in vivo, Mice. The conditions noted are these: study day 28, tucatinib 50 mg/kg orally twice per day, trastuzumab 20 mg/kg IP once every three days, from study day 7. On the procedure:
as §1, §2, §4

For data set [8] the following is noted: reference 23; cited from earlier work.
Data set [9] deals with GXA 3054 gastric cancer PDX model. As to the kind of experiment: GXA 3054 gastric cancer PDX model, tumor growth inhibition. In kind it is in vivo, Mice. The conditions noted are these: study day 17, tucatinib 50 mg/kg orally twice per day, trastuzumab 20 mg/kg IP once every three days. Here is the method: as §1, §2, §3
The test system of data set [10] is CTG-0784 CRC PDX model. As to the kind of experiment: CTG-0784 CRC PDX model, tumor growth inhibition. In kind it is in vivo, Mice. Conditions: study day 29, tucatinib 50 mg/kg orally twice per day, trastuzumab 20 mg/kg IP once every three days. On the procedure:
as §1, §2, §3

Data set [11] concerns HER2 positive metastatic CRC (wild-type KRAS exon 2). Conditions: HERACLES patients, previous treatment with cetuximab or panitumumab; cited from earlier work.

Turning to trastuzumab, the “Observed TGI (%)” value in data set [1] is listed as 38%; in data set [2] it was 50%; in data set [3], −34%; in data set [4] it was 63%; in data set [5], 61%; in data set [6], 55%. For the same substance, the “Observed TGI (%)” value in data set [7] was determined as 86%; in data set [9] it was 93%; in data set [10] it was 36%. The Blood-brain barrier penetration result in [8] is “do not penetrate the blood-brain barrier”.
As for cetuximab, in [11], the “ORR on previous treatment” value is 0%.

The record behind these values is patent US11666572B2, “Treatment of HER2 positive cancers” (Seagen Inc., priority 2017, dated 2023).
